pIC50: −log10 of the molar value.

Chains of the proteins cited; added tags and fusions are not shown. Residues count along the entry.
UniProt P15056, 2-766 V600E limits assumed: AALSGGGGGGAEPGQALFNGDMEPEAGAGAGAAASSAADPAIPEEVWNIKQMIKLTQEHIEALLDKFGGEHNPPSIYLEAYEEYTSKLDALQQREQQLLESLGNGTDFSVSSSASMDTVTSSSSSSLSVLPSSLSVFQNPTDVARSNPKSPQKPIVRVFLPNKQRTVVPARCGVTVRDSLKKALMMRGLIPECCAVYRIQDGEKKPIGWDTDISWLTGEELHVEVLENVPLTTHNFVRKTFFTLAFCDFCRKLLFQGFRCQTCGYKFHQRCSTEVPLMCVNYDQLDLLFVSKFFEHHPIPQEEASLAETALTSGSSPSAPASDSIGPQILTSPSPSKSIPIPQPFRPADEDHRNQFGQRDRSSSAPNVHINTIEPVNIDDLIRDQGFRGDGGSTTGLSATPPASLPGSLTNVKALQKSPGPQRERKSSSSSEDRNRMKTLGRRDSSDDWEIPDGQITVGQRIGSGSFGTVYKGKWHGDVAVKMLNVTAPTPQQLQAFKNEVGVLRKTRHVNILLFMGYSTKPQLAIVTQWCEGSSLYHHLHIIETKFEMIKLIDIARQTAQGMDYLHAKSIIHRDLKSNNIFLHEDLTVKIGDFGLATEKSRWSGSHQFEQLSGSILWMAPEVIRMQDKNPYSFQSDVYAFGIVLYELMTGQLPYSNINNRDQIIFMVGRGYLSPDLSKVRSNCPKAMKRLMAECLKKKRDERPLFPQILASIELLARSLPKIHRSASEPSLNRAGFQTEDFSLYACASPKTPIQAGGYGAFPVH

This assay concerns the target Serine/threonine-protein kinase B-raf (Homo sapiens, UniProt P15056, V600E).

A word on the pIC50: it is the IC50 on a negative log10 scale, so that one unit is a factor of ten. Higher therefore signals a small IC50. Regarding `CC(=O)Nc1cc(Oc2ccc3c(c2)C[C@@H](C(=O)Nc2cc(CN)cc(C(F)(F)F)c2)CC3)ccn1`, the pIC50 is 8.15.

(Values after ChEMBL document CHEMBL1687927, “Design and optimization of potent and orally bioavailable tetrahydronaphthalene Raf inhibitors” (J Med Chem, 2011).)
